Assay [1] deals with GABAA receptor. The assay can be described thus: [3H]Flunitrazepam binding assay (enhancement) in rat brain cerebral cortex homogenates. As for the experimental part: (§1) Tissue preparation. Rat brain cerebral cortex homogenates and the binding assays were conducted essentially as described (Carter et al., 1997). Briefly, adult male Sprague-Dawley rats (Charles River Laboratories, Raleigh, N.C.) were killed by excess CO2 asphyxiation, decapitated, and their brain rapidly removed and frozen on dry ice before being stored −76° C. The frozen cortices were placed in 10 volumes of an ice-cold 0.32 M sucrose solution and homogenized with a Teflon-glass homogenizer. The homogenate was centrifuged at 1500×g (10 min at 4° C.). The supernatant was retained and centrifuged at 10,000×g (20 min at 4° C.), yielding the P2 pellet. The P2 pellet was resuspended in an equal volume of a 50 mM Na+/K+ phosphate buffer containing 200 mM NaCl (pH 7.4) and centrifuged at 10,000×g (10 min at 4° C.). The pellet was washed twice more, resuspended in 1/10 volume of buffer and stored at −76° C. until the time of assay.
[^3H]Flunitrazepam binding assay. This assay was conducted as described for the [^35S]TBPS assay except that the assays contained 20 μg tissue homogenate, 1.0 μM GABA and 1.0 nM [^3H]flunitrazepam (74.1-85 Ci/mmol). Clonazepam (1.0 μM) was used to determine nonspecific binding.
The Emax values are for pregnanolone and the test compounds are presented as the percentage of Emax determined for allopregnanolone. The average enhancement of [^3H]flunitrazepam measured in the presence of allopregnanolone was approximately 60%. In cases where limited inhibition of [^35S]TBPS or enhancement of [^3H]flunitrazepam occurred at the top concentration of 10,000 nM, the IC50 or EC50 values are given as >10,000 nM. The data for the active compounds are reported as the mean±SD from at least three independent experiments.

In assay [2] the target is GABAA receptor. The assay can be described thus: [35S]TBPS binding assay in rat brain cerebral cortex homogenates. The note with it: rat cortical membranes, 6.25 μM GABA, 2 nM [35S]TBPS; mean±SD. The method, then:
as §1, with “The P2 pellet was resuspended in an equal volume of a 50 mM Na+/K+ phosphate buffer containing 200 mM NaCl (pH 7.4) and centrifuged at 10,000×g (10 min at 4° C.). The pellet was washed twice more, resuspended in 1/10 volume of buffer and stored at −76° C. until the time of assay.” left out
[^35S]TBPS binding assays. […] Nonspecific binding was determined in the presence of 200 μM picrotoxin. […] The radioactivity remaining on the filter was determined in a TopCount 12-detector scintillation counter (Packard Instruments, Meriden, Conn.) using 20 μl of MicroScint20 (Packard Instruments) per well and standard liquid scintillation counting techniques.
The Emax values are for pregnanolone and the test compounds are presented as the percentage of Emax determined for allopregnanolone. The average enhancement of [^3H]flunitrazepam measured in the presence of allopregnanolone was approximately 60%. […]

These results are taken from patent publication US8575375B2, “Androstane and pregnane steroids with potent allosteric GABA receptor chloride ionophore modulating properties” (Research Triangle Institute, priority 2007, dated 2013).

The term EC50 denotes the concentration that produces a half-maximal response. As a reminder, the IC50 is the point on the concentration scale where inhibition reaches its midpoint.

Each structure is given as a SMILES string.

In the case of `CC(=O)[C@H]1CC[C@H]2[C@@H]3CC[C@H]4C[C@H](O)CC[C@]4(C)[C@H]3CC[C@]12C` [Allopregnanolone, 3α-hydroxy-5α-pregnane-20-one, reference compound], the “average enhancement of [3H]flunitrazepam” value in the assay with GABAA receptor [1] (in the presence of allopregnanolone) was “approximately 60%”. The “[3H]Flunitrazepam Emax” value with GABAA receptor [1] (percentage of Emax determined for allopregnanolone) came out at 100%. Moreover, on GABAA receptor [1] (rat cortical membranes, 1.0 μM GABA, 1.0 nM [3H]flunitrazepam, mean±SD), the EC50 came to 26 ± 9.9 nM. The IC50 at GABAA receptor [2] was 12.6 ± 1.7 nM.
